Data: patent publication US20170268015A1

Biological target: Tumor Necrosis Factor alpha (TNF-alpha) (UniProt P01375)
Experiment: cell-based or functional assay

anti-TNF-alpha antibody produced in Aurantiochytrium sp.
inhibition of TNF-alpha-induced killing of L929 cells (CellTiter-Glo viability), EC50: 130 ng/mL
